Assay results reported in patent US20080221114A1, “2-(Cyclic Aminocarbonyl) Indoline Derivative and Medicinal Composition Containing the Same” (priority 2005, published 2008).

Protein sequences, listed by entry. Tags and fused reporters are not part of them.
UniProt P16257, whole entry: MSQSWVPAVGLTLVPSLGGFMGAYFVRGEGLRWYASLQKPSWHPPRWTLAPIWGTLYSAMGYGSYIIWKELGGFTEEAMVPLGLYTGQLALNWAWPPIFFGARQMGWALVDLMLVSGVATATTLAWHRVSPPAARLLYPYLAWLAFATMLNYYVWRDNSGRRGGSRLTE

Target: mitochondrial benzodiazepine receptor (MBR) (Rattus norvegicus, UniProt P16257)
Assay: Binding assay of mitochondrial benzodiazepine receptor (MBR), [3H]4'-chlorodiazepam (Ro5-4864), rat kidney membrane-preparation
Conditions: rat kidney membranes, [3H]4'-chlorodiazepam 0.5 nM, 0° C. for 150 minutes

SMILES	IC50
CC1CCN(C(=O)[C@@H]2Cc3ccccc3N2c2ccc(=O)n(C)n2)CC1	30.9 nM
CCC1CCN(C(=O)[C@@H]2Cc3ccccc3N2c2ccc(=O)n(C)n2)CC1	13.3 nM
O=C(C1Cc2ccccc2N1c1ncccn1)N1CCCCCC1 (racemic)	6.5 nM
